One assay addresses Nociceptin receptor (Homo sapiens, UniProt P41146). The assay can be described thus: Displacement of [125I]nociceptin from human nociceptin receptor expressed in CHO cell membrane. For orientation: Displacement assays read how much labelled ligand stays bound in the presence of the test substance.
Assay [1] addresses Delta-type opioid receptor (Homo sapiens, UniProt P41143). The assay can be described thus: Displacement of [3H]diprenorphine from human delta opioid receptor expressed in CHO cell membrane.
For assay [2], the target named is Kappa-type opioid receptor (Homo sapiens, UniProt P41145). As to the kind of experiment: Displacement of [3H]diprenorphine from human kappa opioid receptor expressed in CHO cell membrane.
Another assay has as its target Mu-type opioid receptor (Homo sapiens, UniProt P35372). The assay can be described thus: Displacement of [3H]diprenorphine from human mu opioid receptor expressed in CHO cell membrane.

Amino acid sequences for entries named in this document (tags omitted).
UniProt P41146, whole entry: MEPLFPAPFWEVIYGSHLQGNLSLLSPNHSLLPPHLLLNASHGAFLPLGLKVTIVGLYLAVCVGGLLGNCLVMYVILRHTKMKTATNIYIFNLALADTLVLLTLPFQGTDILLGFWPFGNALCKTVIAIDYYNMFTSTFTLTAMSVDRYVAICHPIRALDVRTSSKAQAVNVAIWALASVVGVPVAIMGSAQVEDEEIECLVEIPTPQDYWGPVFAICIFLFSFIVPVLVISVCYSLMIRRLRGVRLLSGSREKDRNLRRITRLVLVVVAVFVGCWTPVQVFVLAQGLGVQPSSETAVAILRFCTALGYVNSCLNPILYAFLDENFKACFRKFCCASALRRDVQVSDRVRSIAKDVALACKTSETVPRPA
UniProt P41143, whole entry: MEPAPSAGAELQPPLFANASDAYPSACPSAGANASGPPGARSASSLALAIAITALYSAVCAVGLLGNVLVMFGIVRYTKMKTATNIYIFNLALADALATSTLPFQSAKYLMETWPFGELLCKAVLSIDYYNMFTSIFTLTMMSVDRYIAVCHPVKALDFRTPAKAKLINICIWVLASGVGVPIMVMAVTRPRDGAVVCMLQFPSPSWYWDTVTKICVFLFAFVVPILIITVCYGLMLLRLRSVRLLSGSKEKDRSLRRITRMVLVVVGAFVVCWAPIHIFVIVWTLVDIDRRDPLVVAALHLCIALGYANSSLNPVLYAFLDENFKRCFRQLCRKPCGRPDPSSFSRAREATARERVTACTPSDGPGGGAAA
UniProt P41145, whole entry: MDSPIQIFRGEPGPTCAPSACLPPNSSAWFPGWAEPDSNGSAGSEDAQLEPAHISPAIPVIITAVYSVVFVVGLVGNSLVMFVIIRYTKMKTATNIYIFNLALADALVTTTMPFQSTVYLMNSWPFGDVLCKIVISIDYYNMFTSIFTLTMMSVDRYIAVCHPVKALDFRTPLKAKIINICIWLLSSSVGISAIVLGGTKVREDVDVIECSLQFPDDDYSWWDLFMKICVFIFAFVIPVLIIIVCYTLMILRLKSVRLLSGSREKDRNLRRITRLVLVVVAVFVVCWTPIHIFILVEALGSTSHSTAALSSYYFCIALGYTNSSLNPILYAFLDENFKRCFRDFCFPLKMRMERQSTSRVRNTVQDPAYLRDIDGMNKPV
UniProt P35372, whole entry: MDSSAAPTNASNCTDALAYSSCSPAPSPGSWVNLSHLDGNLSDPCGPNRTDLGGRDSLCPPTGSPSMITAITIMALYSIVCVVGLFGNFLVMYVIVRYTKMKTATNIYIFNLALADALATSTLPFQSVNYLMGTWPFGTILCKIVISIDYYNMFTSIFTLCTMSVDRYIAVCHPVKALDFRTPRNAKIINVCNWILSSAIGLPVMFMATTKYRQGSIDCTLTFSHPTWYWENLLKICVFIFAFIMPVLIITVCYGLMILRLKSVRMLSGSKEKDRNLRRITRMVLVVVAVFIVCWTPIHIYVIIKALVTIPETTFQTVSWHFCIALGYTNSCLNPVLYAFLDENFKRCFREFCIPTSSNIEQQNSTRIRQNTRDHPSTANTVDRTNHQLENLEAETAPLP

SMILES strings stand for the structures.

As usually defined, the Ki is a measure of affinity in units of concentration, obtained from inhibition or displacement. Read a low Ki as a stronger hold on the target. For the compound `CCCCC(c1ccccc1)N1CCC2(CC1)C(=O)NCN2c1ccccc1` (stereo unspecified), the Ki at Nociceptin receptor came to 1.1 nM; in assay [1], 1420 nM; in assay [2] it was 13 nM; on Mu-type opioid receptor, 22 nM.

Take `O=C1NCN(c2ccccc2)C12CCN(C1CCc3ccccc31)CC2` (stereo unspecified): the Ki on Nociceptin receptor worked out at 1.2 nM; in assay [1], 1850 nM; in assay [2], 32 nM; on Mu-type opioid receptor, 19 nM.

With `O=C1NCN(c2ccccc2)C12CCN(Cc1ccncc1)CC2`, at Nociceptin receptor, affinity was put at a Ki of 824 nM.

As to `CC(C)CCC(c1ccccc1)N1CCC2(CC1)C(=O)NCN2c1ccccc1` (stereo unspecified), the Ki on Nociceptin receptor is 1.5 nM; in assay [1], 736 nM; in assay [2], 25.5 nM; on Mu-type opioid receptor, 30 nM.

`O=C1NCN(c2ccccc2)C12CCN(C1CCCc3cccc(F)c31)CC2` (stereo unspecified): the Ki at Nociceptin receptor amounted to 0.3 nM; in assay [1], 1230 nM; in assay [2], 145 nM; on Mu-type opioid receptor, 5.1 nM.

On to `O=C1NCN(c2ccccc2)C12CCN(Cc1cccnc1)CC2`, for which the Ki came to 133 nM at Nociceptin receptor, 3790 nM in assay [1], 252 nM in assay [2] and 233 nM at Mu-type opioid receptor.

Values taken from ChEMBL document CHEMBL1139143, “Synthesis and structure-activity relationships of N-substituted spiropiperidines as nociceptin receptor ligands” (Bioorg Med Chem Lett, 2007).
